The values below come from patent publication US20240261250A1 (priority 2020, published 2024).

The subject of the test is primary microglia lysosomes. Briefly: BPB entry into microglial lysosomes (kiss-and-run), quenching of lysosomal fluorescence. The following applies: PAO + 1 mM BPB, WT microglia.

With `O=[As]c1ccccc1` (centres unmarked), the “discoloration of lysosomal fluorescence in BPB solution” value is reported as 55.1% (at 50 seconds vs 0 seconds) and 69.1% (at 200 seconds vs 0 seconds).
